# Data as given in patent US6790958B2, “Purine inhibitors of cyclin dependent kinase 2 & IKBA” (priority 1996, dated 2004).
# What was measured:
# [1] = target: CDK2 (Homo sapiens, UniProt P24941); test: CDK2 assay (histone H1 phosphorylation, 32P-ATP filter assay); assay type: biochemical; conditions: concentration required to inhibit CDK2 activity by 50%; histone H1, 30 μM ATP, 30° C., 30 min
# [2] = system: rat aortic smooth muscle cells; test: Cell proliferation assay, rat aortic smooth muscle cells (MTS); assay type: cell-based; conditions: 48 hr incubation
IC50 (μg/mL) enzyme [1] [µg/mL],SMILES,IC50 (μg/mL) cells [2] [µg/mL]
0.43,CC(C)n1cnc2c(NCc3ccc(Cl)cc3)nc(N(CCO)CCNCCO)nc21,–
2.02,CC(C)n1cnc2c(NCc3ccc(Cl)cc3)nc(NCCNCCO)nc21,–
60,COC(=O)c1ccc(Cn2cnc3c(NCc4ccc(OC)cc4)nc(Cl)nc32)cc1,–
>60,COc1ccc(CNc2nc(Cl)nc3c2ncn3C(F)(F)F)cc1,–
0.07,CC(C)n1cnc2c(NCc3ccc(Cl)cc3)nc(N(CCN)CCO)nc21 [2-[(2-aminoethyl)(6-{[(4-chlorophenyl)methyl]amino}-9-(methylethyl)purin-2-yl)amino]ethan-1-ol],0.2
0.05,CC(N)CNc1nc(NCc2ccc(Cl)cc2)c2ncn(C(C)C)c2n1 (centres unmarked) [{2-[(2-aminopropyl)amino]-9-(methylethyl)purin-6-yl}[(4-chlorophenyl)methyl]amine],0.1
